Measurements as given in US20250221987A1, “PIPERAZINO RING-CONTAINING DERIVATIVE, PHARMACEUTICALLY ACCEPTABLE SALT THEREOF, PREPARATION METHOD THEREFOR, AND APPLICATION THEREOF” (ACERAND THERAPEUTICS (HONG KONG) LIMITED, priority 2022, published 2025).

Protein sequences, listed by entry. Tags and fused reporters are not part of them.
UniProt P09874, whole entry: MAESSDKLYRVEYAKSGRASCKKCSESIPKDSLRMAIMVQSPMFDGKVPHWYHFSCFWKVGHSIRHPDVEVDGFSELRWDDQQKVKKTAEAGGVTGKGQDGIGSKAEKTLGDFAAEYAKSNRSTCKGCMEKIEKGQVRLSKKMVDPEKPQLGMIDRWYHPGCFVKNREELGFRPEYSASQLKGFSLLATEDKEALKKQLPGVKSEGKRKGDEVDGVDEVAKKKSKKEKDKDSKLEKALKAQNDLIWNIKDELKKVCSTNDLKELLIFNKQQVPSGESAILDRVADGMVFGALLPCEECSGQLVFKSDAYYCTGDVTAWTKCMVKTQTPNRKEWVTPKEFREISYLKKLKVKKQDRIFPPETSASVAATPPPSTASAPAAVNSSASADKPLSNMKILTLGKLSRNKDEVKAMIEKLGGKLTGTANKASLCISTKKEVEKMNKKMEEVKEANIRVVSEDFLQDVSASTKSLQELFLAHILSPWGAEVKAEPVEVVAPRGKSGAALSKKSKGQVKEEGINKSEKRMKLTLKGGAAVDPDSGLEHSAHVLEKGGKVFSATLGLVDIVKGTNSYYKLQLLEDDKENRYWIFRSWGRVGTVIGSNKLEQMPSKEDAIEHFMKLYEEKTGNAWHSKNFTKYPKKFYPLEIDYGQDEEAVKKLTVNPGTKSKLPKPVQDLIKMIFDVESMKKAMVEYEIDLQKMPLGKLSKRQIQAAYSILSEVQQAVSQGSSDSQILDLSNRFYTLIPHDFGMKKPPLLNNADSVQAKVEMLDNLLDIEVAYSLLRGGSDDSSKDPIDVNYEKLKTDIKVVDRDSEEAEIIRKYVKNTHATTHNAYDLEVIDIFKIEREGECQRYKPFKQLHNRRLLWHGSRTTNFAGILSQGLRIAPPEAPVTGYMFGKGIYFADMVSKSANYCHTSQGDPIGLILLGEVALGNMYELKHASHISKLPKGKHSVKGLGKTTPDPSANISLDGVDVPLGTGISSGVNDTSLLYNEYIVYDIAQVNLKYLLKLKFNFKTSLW

How the values were obtained:
MDA-MB-436 cells = assay: Proliferation activity assay of MDA-MB-436 cells (CellTiter-Glo); settings: read-out: MDA-MB-436 proliferation inhibition IC50; 4000 cells seeded, 6 days incubation
PARP1 = PARP1 (Homo sapiens (Human), UniProt P09874); assay: PARP1 enzymatic activity assay; assay type: biochemical; settings: ratio IC50 (PARP2)/IC50 (PARP1)

PARP1/PARP2 inhibition Selectivity multiple N (N = IC50 (PARP2)/IC50 (PARP1)) (PARP1)	SMILES	IC50 (MDA-MB-436 cells) [nM]
–	CCc1nc2ccc(CN3CCN(c4ccc(C(=O)NC)nc4F)C4CC[C@H]43)cc2[nH]c1=O (stereo partly drawn)	15
> 416	CCc1nc2c(F)cc(CN3CCN(c4ccc(C(=O)NC)nc4)C4CC[C@H]43)cc2[nH]c1=O (stereo partly drawn)	9
284	CCc1c(F)c2ncc(CN3CCN(c4ccc(C(=O)NC)nc4)C4CC[C@H]43)cc2[nH]c1=O (stereo partly drawn)	4
–	CCc1nc2ccc(CN3CCN(c4ccc(C(=O)NC)nc4)C4CCC43)cc2[nH]c1=O (single isomer, unassigned)	6
